Sequences of proteins named here, by UniProt entry; tags and fusion partners are left off.
Guanine nucleotide-binding protein G(i) subunit alpha-3 (Rattus norvegicus), P08753, UniProt P08753, whole entry, looked up: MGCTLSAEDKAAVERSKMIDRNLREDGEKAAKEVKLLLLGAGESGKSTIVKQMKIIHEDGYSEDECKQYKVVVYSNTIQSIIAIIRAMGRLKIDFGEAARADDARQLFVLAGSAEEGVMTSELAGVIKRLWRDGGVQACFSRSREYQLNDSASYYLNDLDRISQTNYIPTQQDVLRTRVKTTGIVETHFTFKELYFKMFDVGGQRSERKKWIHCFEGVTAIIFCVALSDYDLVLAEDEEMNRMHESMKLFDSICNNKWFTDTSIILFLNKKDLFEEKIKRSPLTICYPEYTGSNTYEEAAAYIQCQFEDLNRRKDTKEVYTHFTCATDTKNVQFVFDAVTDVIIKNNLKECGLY

# Screens (PubChem BioAssay)
# Sampled rows, rich in hits. Any-hit rate of the full collection: about 0.46%.
# GIV-Gai inh = inhibitors of GIV peptide binding to Galpha-i3, primary screen, biochemical, fluorescence polarization, FITC-GIV GBA peptide, rat Galphai3 | 90 min; stronger effect = lower value; scaled: aluminum fluoride 0%, vehicle 100% | AID 1224905, 2016 | 210,000 compounds, 0.42% hits | percent of control (FP), % (concentration not given with the values) | Guanine nucleotide-binding protein G(i) subunit alpha-3 (Rattus norvegicus), P08753;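 active = replicate mean at 85% of control or lower, very high polarization wells dropped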;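 note: wells of about 15 µL received 100 nL stock; the first replicate is given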
# HCMV UL50-53 inh = inhibitors of HCMV UL50-UL53 interaction, biochemical, HTRF. HCMV UL50-UL53 nuclear egress complex (human cytomegalovirus). normalized percent inhibition. hit rate 0.15% among 190,000. AID 1918969, 2023. inhibition, % (no concentration beside the values); in the data active means inhibition above about 27%, passing the limit was not always enough
# GIV-Gai FP conf = inhibitors of GIV peptide binding to Galpha-i3, confirmation, biochemical, fluorescence polarization, FITC-GIV peptide, rat Galphai3; shares compounds with GIV-Gai inh; AID 1259350, 2017; hit rate 38% among 580; fluorescence polarization, mP at 100 µM; hits give low values;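 active means inhibition score of 15 or more, meaning 100 minus mean polarization as percent of control over three replicates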;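 further: lower mP means peptide displaced from Galphai3 so more inhibition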
# GIV-Gai AS conf = inhibitors of GIV binding to Galpha-i3, confirmation, orthogonal assay for GIV-Galpha-i inhibitor project, biochemical, AlphaScreen, His-GIV, GST-Galphai3; shares compounds with GIV-Gai inh; purified proteins, 90 min; hits give low values; AlphaScreen counts at 100 µM; hit rate 39% among 580; AID 1259351, 2017;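 active means inhibition score at or above a set limit, where the score is 100 minus the three-replicate mean percent of control signal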
# * marks the source's active call; other numbers are inactive results; . = no result given.
SMILES,GIV-Gai inh,HCMV UL50-53 inh,others
CC(c1ccccc1)N1C(=O)NC(=O)/C(=C/c2coc3ccccc3c2=O)C1=O (stereo not given),105.2,.,
CN1C(=O)C(=Cc2coc3ccccc3c2=O)C(=O)N(C)C1=O,103.2,38.8*,
Cc1[nH]c2ccccc2c1/C=C/c1nc2ccccc2c(=O)n1-c1ccccc1,-70.0*,7.4,
Cc1ccccc1-n1c(/C=C/c2c(C)[nH]c3ccccc23)nc2ccccc2c1=O,113.4,-11.7,
COc1ccc(CN2C(=O)NC(=O)/C(=C\c3cccc(OC)c3OC)C2=O)cc1,97.8,77.9*,
COc1ccc(-n2c(C)cc(/C=C3/C(=O)NC(=O)N(Cc4ccco4)C3=O)c2C)cc1,94.0,1.3,
COC(=O)C1C(=O)NC2(C)CC1c1cc(OC)ccc1O2 (stereo not given),112.1,.,
COc1cc(C=C2C(=O)NC(=O)NC2=O)ccc1OCc1ccc(C(=O)O)cc1,110.9,20.0,
O=C1NC(=O)C(=Cc2ccc(OCc3ccc(C(=O)O)cc3)c(Br)c2)C(=O)N1,100.7,62.6*,
CC(C)(C)C(C(Oc1ccc(Cl)cc1)n1cncn1)n1nnnc1C1(N)CCCCC1 (stereo not given),103.9,.,
Cc1c(C#N)c2nc3ccccc3n2c(=O)/c1=C\Nc1ccc(N2CCOCC2)c(Cl)c1,56.7*,.,
Cc1cc(Nc2ccc(N3CCCC3)cc2)n2c(nc3ccccc32)c1C#N,101.0,-41.1,
CCCCc1ncc(CNCCc2c(C)[nH]c3ccc(OC)cc23)[nH]1,20.6*,-12.6,
Cc1[nH]c2ccccc2c1CCNCc1ccco1,.,7.6,
O=[N+]([O-])c1ccccc1SC1CC2C(c3ccc(F)cc3)Nc3c(ccc(Cl)c3Cl)C2C1Cl (stereo not given),104.2,.,
CCCC(=O)N1CCC2(CC1)OCCO2,104.8,10.7,
O=C1NC(=O)C(=Cc2cccc(OCCOc3ccc([N+](=O)[O-])cc3)c2)C(=O)N1,111.6,36.8*,
O=C1NC(=O)C(=Cc2ccc(OCCOc3ccc([N+](=O)[O-])cc3)cc2)C(=O)N1,100.7,-30.7,
C=CCN1C(=O)NC(=O)/C(=C/c2ccc(-c3ccc(Cl)c(C(=O)O)c3)o2)C1=O,107.1,-33.7,
COc1cccc(C=C2C(=O)NC(=O)NC2=O)c1,.,14.0,

# Pulled one by one from above, 7 records:
SMILES,GIV-Gai inh,HCMV UL50-53 inh,others
O=[N+]([O-])c1ccccc1SC1CC2C(c3ccc(F)cc3)Nc3c(ccc(Cl)c3Cl)C2C1Cl (stereo not given),104.2,.,
C=CCN1C(=O)NC(=O)/C(=C/c2ccc(-c3ccc(Cl)c(C(=O)O)c3)o2)C1=O,107.1,-33.7,
Cc1[nH]c2ccccc2c1CCNCc1ccco1,.,7.6,
CCCC(=O)N1CCC2(CC1)OCCO2,104.8,10.7,
CCCCc1ncc(CNCCc2c(C)[nH]c3ccc(OC)cc23)[nH]1,20.6*,-12.6,
COc1cccc(C=C2C(=O)NC(=O)NC2=O)c1,.,14.0,
O=C1NC(=O)C(=Cc2cccc(OCCOc3ccc([N+](=O)[O-])cc3)c2)C(=O)N1,111.6,36.8*,

# Later entries.
SMILES,GIV-Gai inh,HCMV UL50-53 inh,others
CN1/C(=C\C=C2C(=O)NC(=O)NC2=O)C(C)(C)c2ccccc21,29.0*,-78.0,
O=C(c1cc2c(=O)[nH]c3ccccc3c2s1)N1CCC2(CC1)OCCO2,103.0,-16.4,
O=C(CNC(=S)N1CC2CC(C1)c1cccc(=O)n1C2)NC1CCCCC1 (stereo not given),105.3,-11.5,
Cc1c(/C(CC(C)C)=N/O)c2ccccc2n1C,103.6,-39.1,
CC1(C)CC(=O)C(C2(O)C(=O)NC(=O)NC2=O)=C(O)C1,99.2,62.9*,
CC(=O)OC1(c2ccccc2)CC(C)N(CC(C)C)C[C@@H]1C (stereo not given in full),100.5,.,
Cc1cc(/C=C2\C(=O)NC(=O)N(c3ccc(F)cc3)C2=O)c(C)n1-c1ccc(C(=O)O)cc1,102.5,-18.4,
Cc1ccc(N2C(=O)NC(=O)/C(=C\c3cc(C)n(-c4cc(C(=O)O)cc(C(=O)O)c4)c3C)C2=O)cc1,106.4,31.9*,
OC(CNC1CCCC1)C(F)(F)F (stereo not given),96.2,-12.1,
O=C1NC(=S)NC(=O)C1=C/C=C/c1ccco1,109.7,77.6*,
CN1C(=O)NC(=O)/C(=C\C=C\c2ccco2)C1=O,95.2,.,
C1=CCC2CCC(C1)N2,99.2,.,
CCCCCCC(=O)O[C@H]1CC[C@H]2[C@@H]3C=CC4=CC(=O)CC[C@]4(C)[C@H]3CC[C@]12C,.,-32.4,
COc1cc2c(no[n+]2[O-])n2nnnc12,79.8*,-95.7,GIV-Gai FP conf=68.1;GIV-Gai AS conf=11443*
CCN(CC)C(=O)c1ccc(NC(=O)Cn2nc(-c3ccccc3)c3ccccc3c2=O)cc1,107.1,4.1,
CCn1nc(-c2cccnc2)nc2c(=O)n(C)c(=O)nc1-2,46.0*,70.8,GIV-Gai FP conf=39.5*;GIV-Gai AS conf=42657
CCn1nc(-c2ccccc2)nc2c(=O)n(C)c(=O)nc1-2,18.6*,88.3*,GIV-Gai FP conf=16.3*;GIV-Gai AS conf=24179
CC(C)OP(C)(=O)C(N)=O (stereo not given),.,-30.4,
O=C(Cc1cccc(F)c1)N1CCN(CC(=O)N2CCCC2)CC1,.,-17.3,
Cc1ccccc1NC1=NCCS1,.,-28.7,
c1ccc2c(NC3=NCCS3)cccc2c1,83.4*,17.8,GIV-Gai FP conf=60.6;GIV-Gai AS conf=35407*
CC1CSC(Nc2cccc(C(F)(F)F)c2)=N1 (stereo not given),.,-10.5,
COC(=O)[C@]1(O)C[C@@H]2O[C@@]1(C)n1c3ccccc3c3c4c(c5c6ccccc6n2c5c31)C(=O)NC4,.,-23.0,
Cc1nc(S(=O)(=O)N2CCCCC2c2cccnc2)cn1C (stereo not given),84.8*,-4.0,GIV-Gai FP conf=58.3;GIV-Gai AS conf=42642
Nc1ccc(S(=O)(=O)N2CCCCC2c2cccnc2)cc1 (stereo not given),103.1,-16.5,
CCCCN=Cc1c(O)[nH]c(=O)[nH]c1=O,112.8,-28.6,
O=C(c1ccccc1)c1cc(Cl)cc2c1NC(c1ccccc1F)C1CC(Sc3ccccc3[N+](=O)[O-])C(Cl)C21 (stereo not given),105.1,.,
CN1C(=O)C(=C/C=C/c2ccccc2)C(=O)N(C)C1=O,80.9*,8.8,GIV-Gai FP conf=73.8;GIV-Gai AS conf=6725*
C=CCN1C(=O)NC(=O)/C(=C/C=C/c2ccccc2)C1=O,154.8,4.1,
COc1cc(C=C2C(=O)NC(=O)NC2=O)ccc1OS(=O)(=O)c1ccccc1[N+](=O)[O-],70.8*,51.2*,GIV-Gai FP conf=58.1;GIV-Gai AS conf=54298
COc1cc(/C=C2\C(=O)NC(=O)N(c3ccccc3)C2=O)c([N+](=O)[O-])cc1OC,110.7,.,
CC(O)CNC1CCC2CCCCC2C1 (stereo not given),.,-3.2,
COc1cc(C2C(C#N)=C(N)Oc3c2c(=O)oc2ccccc32)cc(OC)c1OC(=O)c1ccccc1 (stereo not given),110.9,.,
C=CCN1C(=O)NC(=O)/C(=C/c2ccc(OCC(=O)O)c(OCC)c2)C1=O,97.2,4.0,
CCc1ccc(N2C(=O)/C(=C/c3ccc(OCC(=O)O)c(Br)c3)C(=O)NC2=S)cc1,57.4*,-30.1,GIV-Gai FP conf=34.4*;GIV-Gai AS conf=3342*
COc1cccc2cc(-c3cc(=O)oc4cc(C)c(OC(=O)N(C)C)cc34)oc12,99.2,-27.0,
Cc1cc(C)c2oc(-c3ccc(N/C=c4\c(C)c(C#N)c5nc6ccccc6n5c4=O)cc3)nc2c1,72.6*,2.6,GIV-Gai FP conf=80.3;GIV-Gai AS conf=44971
COc1c(Cl)cc(Cl)cc1-c1c(C#N)c(N)n2c(nc3ccccc32)c1C#N,101.8,.,
O=C(COc1ccc(Cl)cc1)N1CCN(CCc2ccncc2)CC1,100.2,7.9,
CC(C)c1ccc(-n2c(=O)[nH]c3ccccc3c2=O)cc1,.,-30.4,
CCS(=O)(=O)Nc1cccc(C(=C2CCCCC2)c2cnc[nH]2)c1,86.9,-25.2,GIV-Gai FP conf=77.4;GIV-Gai AS conf=6784*
